Results taken from US20240025949A1, “Beta-Arrestin Effectors and Compositions and Methods of Use Thereof” (Trevena, Inc., priority 2021, published 2024).

The chains behind the UniProt entries cited, without tags or fusion partners.
UniProt P25095, whole entry: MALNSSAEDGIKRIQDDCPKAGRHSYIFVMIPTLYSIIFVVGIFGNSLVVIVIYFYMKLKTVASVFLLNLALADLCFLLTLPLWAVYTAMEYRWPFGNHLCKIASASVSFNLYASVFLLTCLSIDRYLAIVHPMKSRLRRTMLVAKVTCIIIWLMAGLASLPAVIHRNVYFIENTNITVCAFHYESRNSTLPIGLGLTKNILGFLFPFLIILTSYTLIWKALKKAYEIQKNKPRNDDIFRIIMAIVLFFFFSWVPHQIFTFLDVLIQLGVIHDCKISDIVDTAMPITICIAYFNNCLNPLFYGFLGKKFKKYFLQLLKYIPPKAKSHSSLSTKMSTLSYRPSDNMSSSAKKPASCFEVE

Tests used:
Format in all cases: cell-based
human AT1R [1] = molecular target: T1, human AT1R (Homo sapiens, UniProt P30556); experiment: PathHunter β-arrestin-2 recruitment assay, human AT1R; details: PathHunter β-arrestin HEK293 cells
T1 construct: ProLink (β-galactosidase enzyme-donor fragment, from the pCMV-ProLink vector)

rat AT1aR [2] = molecular target: T2, rat AT1aR (Rattus norvegicus, UniProt P25095); experiment: PathHunter β-arrestin-2 recruitment assay, rat AT1aR; details: PathHunter β-arrestin HEK293 cells
T2 construct: ProLink (β-galactosidase enzyme-donor fragment, from the pCMV-ProLink vector)

human AT1R [3] = molecular target: T1, human AT1R; experiment: IP1 accumulation assay (IP-One Tb), human AT1R; details: cells expressing human AT1R; for human AT1R IP One EC50 (M): inactive = EC50 greater than 10 uM
rat AT1aR [4] = molecular target: T2, rat AT1aR; experiment: IP1 accumulation assay (IP-One Tb), rat AT1aR; details: cells expressing rat AT1aR
[5] = inactive = EC50 greater than 10 uM

Structure (SMILES)	human AT1R b-arrestin2 Max (%) (human AT1R [1])	rat AT1aR b-arrestin2 Max (%) (rat AT1aR [2])	human AT1R IP One EC50 (M) (human AT1R [3])	rat AT1aR IP One EC50 (M) (rat AT1aR [4]; [5])	human AT1R IP One Max (%) (human AT1R [3])	rat AT1aR IP One Max (%) (rat AT1aR [4])	rat AT1aR b-arrestin2 EC50 (M) (rat AT1aR [2]; [5])	EC50 (rat AT1aR [4]; [5])
CNCC(=O)N[C@@H](CCCNC(=N)N)C(=O)N[C@H](C(=O)N[C@@H](Cc1ccc(O)cc1)C(=O)N[C@@H](Cc1ccc(O)cc1)C(=O)N[C@@H](Cc1c[nH]cn1)C(=O)N1CCC[C@H]1C(N)=O)C(C)C [compound 26]	51.9%	77.3%	inactive	Inactive	–	–	–	–
CC[C@H](C)[C@H](NC(=O)[C@H](Cc1ccc(F)cc1)NC(=O)[C@@H](NC(=O)[C@H](CCCNC(=N)N)NC(=O)CNC)C(C)C)C(=O)N[C@@H](Cc1c[nH]cn1)C(=O)N1CCC[C@H]1C(=O)N[C@H](C)C(=O)O [compound 70]	29.1%	55.6%	inactive	Inactive	–	–	–	–
CC[C@H](C)[C@H](NC(=O)[C@@H]1CCCN1C(=O)[C@H](Cc1c[nH]cn1)NC(=O)[C@H](Cc1ccc(O)cc1)NC(=O)[C@H](Cc1ccc(O)cc1)NC(=O)[C@@H](NC(=O)[C@H](CCCNC(=N)N)NC(=O)CNC)C(C)C)C(=O)O [compound 14]	59.3%	79.0%	–	–	13.5%	19.3%	–	–
CC[C@H](C)[C@H](NC(=O)[C@H](Cc1cc(Br)c(O)c(Br)c1)NC(=O)[C@@H](NC(=O)[C@H](CCCNC(=N)N)NC(=O)CNC)C(C)C)C(=O)N[C@@H](Cc1c[nH]cn1)C(=O)N1CCC[C@H]1C(=O)N[C@H](C)C(=O)O [compound 74]	47.8%	59.0%	inactive	Inactive	–	–	–	–
CNCC(=O)N[C@@H](CCCNC(=N)N)C(=O)N[C@H](C(=O)NCC(=O)N[C@H](C(=O)N[C@@H](Cc1c[nH]cn1)C(=O)N1CCC[C@H]1C(=O)NCC(N)=O)C(C)C)C(C)C [compound 6]	12.1%	–	–	–	14.1%	21.9%	inactive	–
CC[C@H](C)[C@H](NC(=O)[C@H](Cc1ccc(O)cc1)NC(=O)[C@@H](NC(=O)[C@H](CCCNC(=N)N)NC(=O)[C@@H](C)NC)C(C)C)C(=O)N[C@@H](Cc1c[nH]cn1)C(=O)N1CCC[C@H]1C(=O)N[C@H](C)C(=O)O [compound 82]	38.3%	60.6%	inactive	Inactive	–	–	–	–
CCC[C@H](NC(=O)[C@H](Cc1ccc(O)cc1)NC(=O)[C@@H](NC(=O)[C@H](CCCNC(=N)N)NC(=O)CNC)C(C)C)C(=O)N[C@@H](Cc1c[nH]cn1)C(=O)N1CCC[C@H]1C(=O)N[C@H](C)C(=O)O [compound 83]	34.3%	70.2%	inactive	Inactive	–	–	–	–
CCC[C@H](NC(=O)[C@@H]1CCCN1C(=O)[C@H](Cc1c[nH]cn1)NC(=O)[C@@H](NC(=O)[C@H](Cc1ccc(O)cc1)NC(=O)[C@@H](NC(=O)[C@H](CCCNC(=N)N)NC(=O)CNC)C(C)C)[C@@H](C)CC)C(=O)O [compound 35]	67.9%	79.8%	–	–	7.1%	30.5%	–	–
CNCC(=O)N[C@@H](CCCNC(=N)N)C(=O)N[C@H](C(=O)N[C@@H](Cc1ccc(O)c(O)c1)C(=O)N[C@H](C(=O)N[C@@H](Cc1c[nH]cn1)C(=O)N1CCC[C@H]1C(=O)N[C@@H](C)C(=O)O)[C@@H](C)OC)C(C)C [compound 77]	97.5%	110.5%	inactive	Inactive	–	–	–	–
CNCC(=O)N[C@@H](CCCNC(=N)N)C(=O)N[C@H](C(=O)N[C@@H](Cc1ccc(O)cc1)C(=O)N[C@@H](Cc1ccc(O)cc1)C(=O)N[C@@H](Cc1c[nH]cn1)C(=O)N1CCC[C@H]1C(=O)N[C@H](Cc1ccccc1)C(=O)O)C(C)C [compound 28]	82.9%	91.4%	inactive	–	–	24.6%	–	–
CNCC(=O)N[C@@H](CCCNC(=N)N)C(=O)N[C@H](C(=O)N[C@@H](Cc1ccc(O)cc1)C(=O)N[C@H](C(=O)N[C@@H](Cc1c[nH]cn1)C(=O)N1CCC[C@H]1C(=O)N[C@H](C)C(=O)O)[C@@H](C)OC)C(C)C [compound 84]	50.5%	80.6%	inactive	Inactive	–	–	–	–
CC[C@H](C)[C@H](NC(=O)[C@H](Cc1ccc(O)c([N+](=O)[O-])c1)NC(=O)[C@@H](NC(=O)[C@H](CCCNC(=N)N)NC(=O)CNC)C(C)C)C(=O)N[C@@H](Cc1c[nH]cn1)C(=O)N1CCC[C@H]1C(=O)N[C@H](C)C(=O)O [compound 72]	62.6%	88.6%	inactive	Inactive	–	–	–	–
CC(C)[C@H](NC(=O)[C@H](CCCNC(=N)N)NC(=O)[C@H](N)CCC(=O)O)C(=O)N[C@@H](Cc1ccc(O)cc1)C(=O)N[C@@H](Cc1ccc(O)cc1)C(=O)N[C@@H](Cc1c[nH]cn1)C(=O)N1CCC[C@H]1C(N)=O [compound 60]	44.02%	79.27%	inactive	Inactive	–	–	–	–
CC[C@H](C)[C@H](NC(=O)[C@H](Cc1ccc(O)c(Cl)c1)NC(=O)[C@@H](NC(=O)[C@H](CCCNC(=N)N)NC(=O)CNC)C(C)C)C(=O)N[C@@H](Cc1c[nH]cn1)C(=O)N1CCC[C@H]1C(=O)N[C@H](C)C(=O)O [compound 75]	55.0%	79.3%	inactive	–	–	26.7%	–	25 µM
CNCC(=O)N[C@@H](CCCNC(=N)N)C(=O)N[C@H](C(=O)N[C@@H](Cc1ccc(O)c(F)c1)C(=O)N[C@H](C(=O)N[C@@H](Cc1c[nH]cn1)C(=O)N1CCC[C@H]1C(=O)N[C@@H](C)C(=O)O)[C@@H](C)OC)C(C)C [compound 78]	71.5%	91.3%	inactive	Inactive	–	–	–	–
CC[C@H](C)[C@H](NC(=O)[C@@H]1CCCN1C(=O)[C@H](Cc1c[nH]cn1)NC(=O)[C@@H](NC(=O)[C@H](Cc1ccc(O)cc1)NC(=O)[C@@H](NC(=O)[C@H](CCCNC(=N)N)NC(=O)CNC)C(C)C)C(C)C)C(N)=O [compound 12]	19.9%	34.4%	–	–	20.7%	44.9%	–	–
CNCC(=O)N[C@@H](CCCNC(=N)N)C(=O)N[C@H](C(=O)N[C@@H](Cc1ccc(O)cc1)C(=O)N[C@H](C(=O)N[C@@H](Cc1c[nH]cn1)C(=O)N1CCC[C@H]1C(=O)N[C@@H](C)C(=O)O)[C@@H](C)OC)C(C)C [compound 30]	68.2%	80.4%	inactive	Inactive	–	–	–	–
CNCC(=O)N[C@@H](CCCNC(=N)N)C(=O)N[C@H](C(=O)N[C@@H](Cc1ccc(O)cc1)C(=O)N[C@@H](CCCCN)C(=O)N[C@@H](Cc1c[nH]cn1)C(=O)N1CCC[C@H]1C(=O)N[C@@H](C)C(=O)O)C(C)C [compound 23]	61.2%	84.9%	inactive	–	–	10.3%	–	–
CC(C)[C@H](NC(=O)[C@H](CCCNC(=N)N)NC(=O)CN(C)C)C(=O)N[C@@H](Cc1ccc(O)cc1)C(=O)N[C@H](C(=O)N[C@@H](Cc1c[nH]cn1)C(=O)N1CCC[C@H]1C(=O)N[C@@H](C)C(=O)O)C(C)C [compound 31]	58.1%	75.9%	inactive	–	–	6.2%	–	–
CC(C)[C@H](NC(=O)[C@H](CCCNC(=N)N)NC(=O)[C@@H](N)CCC(=O)O)C(=O)N[C@@H](Cc1ccc(O)cc1)C(=O)N[C@@H](Cc1ccc(O)cc1)C(=O)N[C@@H](Cc1c[nH]cn1)C(=O)N1CCC[C@H]1C(N)=O [compound 59]	19.49%	27.84%	inactive	Inactive	–	–	–	–
CC[C@H](C)[C@@H]1NC(=O)[C@H](Cc2ccc(O)cc2)NC(=O)[C@H](C(C)C)NC(=O)[C@H](Cc2ccccc2)NC(=O)[C@@H]2CCCN2C(=O)[C@H](Cc2c[nH]cn2)NC1=O [compound 38]	43.1%	66.4%	inactive	–	–	20.8%	–	–
CC[C@H](C)[C@H](NC(=O)[C@@H]1CCCN1C(=O)[C@H](Cc1c[nH]cn1)NC(=O)[C@H](CCC(=O)O)NC(=O)[C@H](Cc1ccc(O)cc1)NC(=O)[C@@H](NC(=O)[C@H](CCCNC(=N)N)NC(=O)CNC)C(C)C)C(=O)O [compound 16]	56.9%	76.9%	inactive	–	–	24.4%	–	–
CN[C@@H](CCC(=O)O)C(=O)N[C@@H](CCCNC(=N)N)C(=O)N[C@H](C(=O)N[C@@H](Cc1ccc(O)cc1)C(=O)N[C@@H](Cc1ccccc1)C(=O)N[C@@H](Cc1c[nH]cn1)C(=O)N1CCC[C@H]1C(N)=O)C(C)C [compound 66]	30.56%	58.54%	inactive	Inactive	–	–	–	–
